The results in this text go back to BindingDB's records for doi:10.1046/j.1471-4159.1997.69051810.x (Janssen Research Foundation, 1997).

By UniProt entry, the sequences of proteins in these tests, tags left out. Where a name states a change or a piece, a line headed by the entry shows the natural chain unless it says otherwise.
UniProt Q62758: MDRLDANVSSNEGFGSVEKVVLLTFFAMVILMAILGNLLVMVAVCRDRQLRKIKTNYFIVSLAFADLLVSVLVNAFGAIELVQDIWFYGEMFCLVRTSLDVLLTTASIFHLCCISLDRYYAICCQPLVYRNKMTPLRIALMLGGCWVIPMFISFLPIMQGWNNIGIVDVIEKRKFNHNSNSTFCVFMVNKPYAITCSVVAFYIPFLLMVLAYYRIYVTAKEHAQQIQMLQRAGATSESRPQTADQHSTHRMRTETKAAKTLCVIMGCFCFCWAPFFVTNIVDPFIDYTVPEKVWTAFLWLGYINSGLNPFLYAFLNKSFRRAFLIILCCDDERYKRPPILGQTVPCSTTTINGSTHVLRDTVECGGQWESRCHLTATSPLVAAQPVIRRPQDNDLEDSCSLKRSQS

The target in the test is 5-hydroxytryptamine receptor 4 (Rattus norvegicus, UniProt Q62758).

The Ki is the dissociation constant of the complex between target and ligand, obtained from inhibition or displacement.

As to `NCCc1c[nH]c2ccc(O)cc12` [[3H]-5-HT], the inhibition constant (Ki) is 158 nM.
